This is an account of results in ChEMBL document CHEMBL1142690, “Synthesis of NO-donor bisphosphonates and their in-vitro action on bone resorption” (J Med Chem, 2005).

Where only a bound is given, the exact number is not on record here.

A short description of experiment [1]: Dissociation constant determined by the pH-metric method. Type of experiment: functional.
Experiment [2] in a line: Affinity for hydroxyapatite after 24 hours. Type of experiment: functional.

In the case of `O=[N+]([O-])OCC(CCCC(P(=O)(O)O)P(=O)(O)O)O[N+](=O)[O-]` (stereo not given), in experiment [1], the pKa1 was below 1.5, the pKa2 is 2.71, the pKa3 was 6.6 and the pKa4 is 11.2. The compound also showed an Affinity in experiment [2] of 68.1%.
The corresponding values for `O=[N+]([O-])OCC(CCCC(O)(P(=O)(O)O)P(=O)(O)O)O[N+](=O)[O-]` (stereo not given) are below 1.5, 3.11, 6.69, 11.5 and 46.3%.
